Laboratory results from article PMC4537502 (Psychopharmacology, 2015).

Chains of the proteins cited; added tags and fusions are not shown. Lines headed by an entry give the natural chain unless they say otherwise; changes in a name come on top.
UniProt P61169, whole entry: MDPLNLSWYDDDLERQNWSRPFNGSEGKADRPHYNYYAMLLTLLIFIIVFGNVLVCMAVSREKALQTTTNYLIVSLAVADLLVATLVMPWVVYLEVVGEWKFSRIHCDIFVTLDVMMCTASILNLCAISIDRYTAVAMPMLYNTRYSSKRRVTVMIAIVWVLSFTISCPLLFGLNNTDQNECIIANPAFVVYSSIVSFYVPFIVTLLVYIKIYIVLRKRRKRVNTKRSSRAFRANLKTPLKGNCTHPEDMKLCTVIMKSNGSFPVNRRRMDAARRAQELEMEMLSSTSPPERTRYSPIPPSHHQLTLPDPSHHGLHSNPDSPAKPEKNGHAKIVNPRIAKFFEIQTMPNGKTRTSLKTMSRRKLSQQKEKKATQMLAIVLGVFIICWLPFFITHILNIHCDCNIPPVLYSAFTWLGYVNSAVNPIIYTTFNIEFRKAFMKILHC

Legend:
[1] = target: dopamine D2 receptor (D2R) (Rattus norvegicus, UniProt P61169); conditions: for plateau value of striatum-to-cerebellum ratio of ^11C-raclopride: not statistically significant
Procedure: Because of limited availability of the test drug, the 60 mg/kg dose group was scanned only with ^11C-raclopride.
After drug administration and about 20 min before each microPET scan, animals were anesthetized with isoflurane (Pharmachemie BV, Haarlem, Netherlands). […] Both tracers were injected as a slow bolus (1 ml of saline-diluted tracer solution infused during a period of 1 min), using a Harvard-style injection pump.
Two rats were scanned in each scan session. They were positioned on heating mats in a microPET Focus 220 system, in transaxial position above each other with their brains in the field of view. Body temperature of the animals was kept close to normal with electronic temperature controllers. Heart rate and oxygen level of the blood during the scan were monitored using pulse oximeters (PulseSense, Nonin). […] A list mode protocol was used with a 76-min acquisition time.
Image reconstruction was performed using microPET Manager 2.3.3.6 (Siemens). The PET data were split according to position along the y-axis, so that a separate data set was acquired for each animal. The list mode data of the emission scans were reframed in a dynamic sequence of 6 × 10, 4 × 30, 2 × 60, 1 × 120, 1 × 180, 4 × 300, and 3 × 600 s (with an additional 960-s frame for the rat that was injected first). The data were reconstructed per time frame employing an iterative reconstruction algorithm (OSEM2D with Fourier rebinning, 4 iterations, and 16 subsets). […] Data sets were corrected for decay, random coincidences, scatter, and attenuation.
In ^11C-raclopride scans of the brain, three-dimensional regions of interest (ROIs) were manually drawn over the left and right striatum and cerebellum, using the program ASIPro 6.3.3.0 (Siemens). […] Time-activity curves (TACs) were generated for these regions (Fig. 1). The results are expressed as dimensionless standardized uptake values (PET-SUV), defined as [(tissue activity concentration (MBq/g) × body weight (g) / injected dose (MBq)]. Brain tissue was assumed to have a specific gravity of 1 g/ml.
Plateau values for the striatum-to-cerebellum ratio were derived from this curve fit.

sigma-1R = conditions: ref Sahlholm et al. [2013]; Pettersson et al. [2010]; cited from earlier work

## CCCN1CCC(c2cccc(S(C)(=O)=O)c2)CC1 [pridopidine, 4-[3-(methylsulfonyl)phenyl]-1-propylpiperidine]
[1]; 3 mg/kg pridopidine
  plateau value of striatum-to-cerebellum ratio of ^11C-raclopride: appeared to be increased
[1]; 15 mg/kg pridopidine
  plateau value of striatum-to-cerebellum ratio of ^11C-raclopride: slight decrease
[1]; 60 mg/kg pridopidine
  target-to-nontarget ratio of ^11C-raclopride: significant decrease
[1]; 60 mg/kg pridopidine s.c.
  D2R occupancy (striatum-to-cerebellum ratio): 66%
[1]; 60 mg/kg pridopidine, mean ± S.D.
  Target binding of the radioligand (striatum-to-cerebellum ratio at plateau minus one): 0.96 ± 0.10
[1]; 60 vs 3 mg/kg
  dose for significant D2R occupancy relative to dose required for sigma-1R occupancy: 20 fold
sigma-1R
  affinity for sigma-1R relative to D2R: about 100 fold

Read-outs that look alike come from different tables or passages of the source.
